Tested on: Pronase
Settings: after one hour; 10 μM polypeptide, about 1 mg/mL Pronase, 37° C.

Sequence: ATVKFTHQGEEKQVDISKIKWVIRWGQYINVFKYDENGGAKGWGYVSEKDAPKELLQMLKKR
- polypeptide observed by LC-MS after incubation with Pronase: No L-R11.1.6 D36N was observed

Source: patent US11834480B2 (priority 2020, dated 2023)
